{
  "source": "paper PMC4459640",
  "proteins": {"B1": {"name": "human SULT1A3 (Homo sapiens) (protein)", "chain": "MELIQDTSRPPLEYVKGVPLIKYFAEALGPLQSFQARPDDLLINTYPKSGTTWVSQILDMIYQGGDLEKCNRAPIYVRVPFLEVNDPGEPSGLETLKDTPPPRLIKSHLPLALLPQTLLDQKVKVVYVARNPKDVAVSYYHFHRMEKAHPEPGTWDSFLEKFMAGEVSYGSWYQHVQEWWELSRTHPVLYLFYEDMKENPKREIQKILEFVGRSLPEETMDFMVQHTSFKEMKKNPMTNYTTVPQELMDHSISPFMRKGMAGDWKTTFTVAQNERFDADYAEKMAGCSLSFRSEL"}},
  "substrate": "CN1CC[C@]23c4c5ccc(O)c4O[C@H]2[C@@H](O)C=C[C@H]3[C@H]1C5",
  "assay": "not read",
  "conditions": "other: Michaelis-Menten, pH 7.5",
  "data": [
    {"protein": "B1", "values": [
      {"measurement": "Vmax", "value": "> 0.003", "unit": "µmol/min/mg"}
    ]}
  ]
}
